# In PubChem BioAssay AID1381 (University of Pittsburgh Molecular Library Screening Center, 2008):
# Only a part is listed here, and it is no random draw. Some salts and complexes are drawn in separate pieces, as the source files them; their charges need not balance. Active and inactive are the calls of the source.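 How the source made its calls: active means plate z-score of nuclear minus cytoplasmic receptor signal below a set negative limit, without overly bright fluorescence or cell loss (cut at about -3.5 in these data, passing the limit was not always enough); inactive means the rest, inconclusive results apart.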
# Assay: inhibitors of GR-EGFP nuclear translocation, primary screen, dynein cargo transport inhibitor project, imaging, high-content, 3617.4 mouse cells (AID 1381)
# Settings: stronger effect = lower value, stimulated with dexamethasone, 1 µM
smiles,measurement,setting,value
CC(=O)Nc1ccc([As](=O)(O)O)cc1,z-score,at 20 µM unless noted,inactive: -0.193
COc1ccc(OP(C)(=O)Nc2ccccc2Br)cc1 (configuration not stated),z-score,at 20 µM unless noted,inactive: 0.977
CCOP(=O)(Nc1ccccc1)OCC,z-score,at 20 µM,inactive: 2.21
same,z-score,at 50 µM,inactive: -0.769
Cc1cc(SC(NC(=O)c2ccc(F)cc2)C(Cl)(Cl)Cl)ncn1 (configuration not stated),z-score,at 20 µM unless noted,inactive: -0.0394
Cc1ccc(NP(=O)(Oc2ccccc2F)Oc2ccccc2F)nc1,z-score,at 20 µM unless noted,inactive: 0.447
COc1ccccc1OP(C)(=O)Nc1ccc(C)c(C)c1 (configuration not stated),z-score,at 20 µM unless noted,inactive: -0.163
CCC(=O)N1C2C3N(C(=O)CC)C1C1N(C(=O)CC)C(C(N1C(=O)CC)N3C(=O)CC)N2C(=O)CC,z-score,at 20 µM unless noted,inactive: -1.08
CCN(CC)CCCOC(=O)C(O)(c1ccccc1)C1CCCCC1 (configuration not stated),z-score,at 20 µM unless noted,inactive: 0.297 [at 50 µM]
COC(=O)c1cc2c(s1)N=C(c1ccccc1)N(C)P2(=O)N1CCOCC1 (configuration not stated),z-score,at 20 µM unless noted,inactive: -0.617
CC(=O)NC(SC(=S)N(CC(C)C)CC(C)C)C(Cl)(Cl)Cl (configuration not stated),z-score,at 20 µM unless noted,inactive: 1.06
Cc1ccc(OP(=O)(Nc2ccccn2)Oc2ccc(C)cc2)cc1,z-score,at 20 µM unless noted,inactive: 1.67
Cc1ccccc1OP(=O)(Nc1ccccn1)Oc1ccccc1C,z-score,at 20 µM unless noted,inactive: -0.404
CN(C)C(=O)Oc1noc2ccccc12,z-score,at 20 µM unless noted,inactive: -0.617
CCCCCOc1ccc(NP(C)(=O)Oc2ccc(Cl)cc2Cl)cc1 (configuration not stated),z-score,at 20 µM unless noted,inactive: 0.649
CP(=O)(Nc1ccccc1)Oc1ccc(F)cc1 (configuration not stated),z-score,at 20 µM unless noted,inactive: -1.09 [at 50 µM]
c1ccc(-c2nn[nH]n2)c(-c2nn[nH]n2)c1,z-score,at 20 µM unless noted,inactive: 1.53
Cc1ccc(NP(=O)(Oc2cccc(C)c2)Oc2cccc(C)c2)nc1,z-score,at 20 µM unless noted,inactive: 0.581
CCOC(=O)NC(Sc1ccccc1)C(Cl)(Cl)Cl (configuration not stated),z-score,at 20 µM unless noted,inactive: -0.388
O=C(NC1CCS(=O)(=O)C1)NP(=S)(Oc1ccccc1)Oc1ccccc1 (configuration not stated),z-score,at 20 µM unless noted,inactive: -0.556
CCNC(=S)/N=C(\N)N[N+](=O)[O-],z-score,at 20 µM unless noted,inactive: -0.278
COc1ccc(OP(C)(=O)Nc2ccc(SC(F)(F)F)cc2)cc1 (configuration not stated),z-score,at 20 µM unless noted,inactive: 0.0892
CCOC(=O)c1ccc(NP(C)(=O)Oc2ccc(F)cc2)cc1 (configuration not stated),z-score,at 20 µM unless noted,inactive: 0.303
O=C(OCCN1CCN(CCOCc2ccccc2)CC1)C(O)(c1ccccc1)c1ccccc1,z-score,at 20 µM unless noted,inactive: 1.29
C[C@@H]1C=CCP(=O)(Oc2ccccc2)O1 (some centres not stated),z-score,at 20 µM unless noted,inactive: 0.99
C[C@H]1OP(=O)(Oc2ccccc2)C[C@@H]2O[C@@H]21 (some centres not stated),z-score,at 20 µM unless noted,inactive: -0.0115
O=C(OC1CN2CCC1CC2)c1ccc([N+](=O)[O-])cc1 (configuration not stated),z-score,at 20 µM unless noted,inactive: -0.469
COc1ccc2c(c1O)-c1c(O)c(OC)cc3c1[C@H](C2)[N+](C)(C)CC3.O=[N+]([O-])c1cc([N+](=O)[O-])c([O-])c([N+](=O)[O-])c1[O-],z-score,at 20 µM unless noted,inactive: -0.405
CC(=O)Nc1ccc([As](=O)(O)O)c(O)c1,z-score,at 20 µM unless noted,inactive: 1.26
CC(=O)Nc1ccc(Oc2c([N+](=O)[O-])cc([N+](=O)[O-])cc2[N+](=O)[O-])cc1,z-score,at 20 µM unless noted,inactive: 0.52
O=P1(Nc2nc3ccc(Cl)cc3s2)COc2ccccc2O1 (configuration not stated),z-score,at 20 µM unless noted,inactive: 0.483
CCOc1ccc(C2=NCC(CBr)S2)cc1 (configuration not stated),z-score,at 20 µM unless noted,inactive: 2.01
CC(C)(C)C(=O)NC(Sc1ccccc1)C(Cl)(Cl)Cl (configuration not stated),z-score,at 20 µM unless noted,inactive: -0.872
CC(C)c1ccc(OP(C)(=O)Nc2ccc(SC(F)(F)F)cc2)cc1 (configuration not stated),z-score,at 20 µM unless noted,inactive: -0.033
CP(=O)(Nc1ccccc1F)Oc1ccccc1 (configuration not stated),z-score,at 20 µM unless noted,inactive: -0.0553
CP(=O)(Nc1ccc2c(c1)OCCO2)Oc1ccccc1 (configuration not stated),z-score,at 20 µM unless noted,inactive: 0.121 [at 50 µM]
Cc1ccccc1NP(C)(=O)Nc1ccccc1C,z-score,at 20 µM unless noted,inactive: -0.446
O=P(Nc1nccs1)(c1ccccc1)c1ccccc1,z-score,at 20 µM unless noted,inactive: 0.601 [at 50 µM]
CC(C)C(=O)NC(Sc1ccccc1)C(Cl)(Cl)Cl (configuration not stated),z-score,at 20 µM unless noted,inactive: -0.227
CP(=O)(Nc1ccc(SC(F)(F)F)cc1)Oc1ccc(F)cc1 (configuration not stated),z-score,at 20 µM unless noted,inactive: -0.351
c1nnnn1CCn1cnnn1,z-score,at 20 µM unless noted,inactive: -0.0958
CCOP(C)(=S)SCC(=O)NC(C)(CC)C(=O)O (configuration not stated),z-score,at 20 µM unless noted,inactive: -0.574
O=[As](O)(c1ccccc1)c1ccc(O)cc1,z-score,at 20 µM unless noted,inactive: 0.605
Cc1cc(-c2cccc3ccccc23)c(C)cn1.O=[N+]([O-])c1cc([N+](=O)[O-])c(O)c([N+](=O)[O-])c1,z-score,at 20 µM unless noted,inactive: -0.923
O=[N+]([O-])c1cc([N+](=O)[O-])c(NCC2CCS(=O)(=O)C2)c([N+](=O)[O-])c1 (configuration not stated),z-score,at 20 µM unless noted,inactive: -0.438
O=[N+]([O-])c1ccc(OP2(=O)COCCO2)cc1 (configuration not stated),z-score,at 20 µM unless noted,inactive: 0.0905
CC(=O)NC(SC(=S)N(C)C)C(Cl)(Cl)Cl (configuration not stated),z-score,at 20 µM unless noted,inactive: 0.506
O=[N+]([O-])c1ncn(CCn2cnc([N+](=O)[O-])n2)n1,z-score,at 20 µM unless noted,inactive: 0.775
O=C(OC1CN2CCC1CC2)c1cccc(Cl)c1 (configuration not stated),z-score,at 20 µM unless noted,inactive: 0.103
Nc1ccc([As](=O)(O)c2ccc([N+](=O)[O-])cc2)cc1,z-score,at 20 µM unless noted,inactive: -0.133
C(Cc1nn[nH]n1)Cc1nn[nH]n1,z-score,at 20 µM unless noted,inactive: -0.926
O=P(Nc1ccccn1)(c1ccc(Br)cc1)c1ccc(Br)cc1,z-score,at 20 µM unless noted,inactive: -0.31
COc1ccc(OP(C)(=O)Nc2cccc(Br)c2)cc1 (configuration not stated),z-score,at 20 µM unless noted,inactive: -0.0585
COc1ccc(NP(C)(=O)Oc2ccccc2OC)cc1 (configuration not stated),z-score,at 20 µM unless noted,inactive: -0.775
O=P(Nc1nc2ccccc2s1)(c1ccccc1)c1ccccc1,z-score,at 20 µM unless noted,inactive: 0.263
CN(C)CCOC(=O)C(O)(c1ccccc1)C1CCCCC1 (configuration not stated),z-score,at 20 µM unless noted,inactive: 0.281 [at 50 µM]
C[C@H]1OP(=O)(Oc2ccccc2)[C@H](O)[C@H](O)[C@H]1N=[N+]=[N-] (some centres not stated),z-score,at 20 µM unless noted,inactive: -0.0286
